Consider one substance from patent US20100226922A1, “SPECIFIC PROTEASE INHIBITORS AND THEIR USE IN CANCER THERAPY” (priority 2006, published 2010).

In experiment [1] the test system is EpCAM-YFP cleavage in HEK293 cells. In words: EpIC formation (EpCAM cleavage) by immunoblot in HEK293 cells transiently transfected with EpCAM-YFP. The class given is cell-based, human. As to conditions: 60 nM Compound E over two days. The source says:
In the beginning of the study nothing was known about the molecular mechanisms underlying the signalling mechanisms of EpCAM. In order to test for potential EpCAM cleavage, full-length EpCAM was C-terminally fused to the yellow fluorescence protein to generate EpCAM-YFP. Similarly, a potential intracellular domain of EpCAM (EpIC), starting with serine^289, was fused to the YFP moiety to generate EpIC-YFP. For this purpose, EpCAM or EpIC cDNA sequences were cloned into peYFP-N1 (BD Biosciences, Heidelberg Germany). […] HEK293 cells are human embryonic kidney cells, which were cultured in standard DMEM containing 10% fetal calf serum and passaged three times per week. Transfection was carried out with MATra reagent (IBA, Göttingen, Germany) in six-well plates (5×10^5 cells/well) according to the manufacturer's protocol. One microgram of plasmid DNA was transfected per sample for a time period of 24 h. For immunoblot analysis, 1×10^6 cells were lysed in 100 μl lysis buffer (TBS/1% triton and protease inhibitors). Lysates were pre-cleared upon centrifugation (13.000 rpm, 4° C., 10 min), separated upon SDS-PAGE, and transferred onto PVDF membranes (Millipore, Bedford, US). The expression of both proteins was assessed upon immunobloting with EpIC- (A20 or 1144, which are α-EpIC antibodies; Santa Cruz Biotech, USA and Epitomics, USA) and YFP-specific antibodies in combination with horseradish peroxidase (HRP)-conjugated secondary antibodies and the ECL reagent (Amersham Biosciences).
The interaction of EpCAM with PS-2 and TACE indicates an involvement of these proteases in the proteolytic processing of EpCAM. To confirm this, HEK293 cells were transiently transfected with EpCAM-YFP expression plasmid. Briefly, 5×10^5 cells were plated in 6-well plates and transiently transfected 24 h later with 1 μg plasmid DNA using the MATra transfection reagent (IBA, Göttingen, Germany—1 μl reagent per 1 μg DNA). […] Cleavage of EpIC was assessed with an EpIC-specific antibody (1144, Epitomics, USA) in a time kinetic. […]
(In general: A western blot detects proteins with antibodies after separation by electrophoresis.)

Experiment [2] deals with TCF/Lef-responsive promoters in HEK293 cells. Put plainly: TCF/Lef (Lef 1 consensus) luciferase reporter assay in HEK293 cells. Format: cell-based, human. As to conditions: transient transfection, treated with PS-inhibitor. On the technique in general: In a reporter assay the amount or activity of a reporter protein is the signal.

Turning to “N—[N-(3,5-difluorophenacetyl)]-1-alanyl-3-amino-1-methyl-5-phenyl-1,3-dihydro-benzo[e](1,4)diazepin-2-one”, in experiment [1], the “induction of the target genes c-myc and eFABP” value is “impaired induction”; the “intermediate cleavage products of EpCAM with a molecular weight of 33-37 kDa” value is listed as “accumulation of intermediate cleavage products”. In addition, the “formation of EpIC” value in experiment [1] (time kinetic, EpIC-specific antibody 1144) was “reduced formation of EpIC”. For the same substance, in experiment [2], the “induction of Lef 1 consensus reporter by transfected full-length EpCAM or EpIC” value is reported as “completely abrogated this induction by EpCAM but not by EpIC”.
